## AlphaSeq binding of Ab-91 heavy chain variants to a spike HR2 peptide

Data: MIT Lincoln Laboratory AlphaSeq set, Engelhart et al. 2022, doi:10.1038/s41597-022-01779-4, as distributed in FLAb.

The target is the same throughout: PDVDLGDISGINAS, from the HR2 region of SARS-CoV-2 spike.

Each scFv is VL, a (GGGGS)3 linker, VH, as in the parent Ab-91, and differs from it in the CDRs of the heavy chain only.
VL: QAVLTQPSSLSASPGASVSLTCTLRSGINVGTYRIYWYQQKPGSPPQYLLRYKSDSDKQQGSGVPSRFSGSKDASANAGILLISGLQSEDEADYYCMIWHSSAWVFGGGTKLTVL
VH: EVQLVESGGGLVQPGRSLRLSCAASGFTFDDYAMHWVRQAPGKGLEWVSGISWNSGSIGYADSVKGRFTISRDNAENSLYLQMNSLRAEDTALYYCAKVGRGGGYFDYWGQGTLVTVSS

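The parent was found by panning a naive human phage display library on the peptide. Variants in AAYL51 differ from the parent at up to three CDR positions; double and triple changes were sampled at random. AlphaSeq pools MATa yeast showing the antibodies with MATalpha yeast showing the peptide. The frequency of each diploid, read from paired DNA barcodes, reflects how well the two displayed proteins bind. A regression on co-assayed BCL2-family reference pairs converts the normalised counts of each replicate to an apparent Kd. There are three technical replicates.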

The parent's heavy chain CDRs are GFTFDDYAMH, GISWNSGSIGYADSVK, VGRGGGYFDY; each variant's own CDRs replace them letter for letter.
Values are log10 of the apparent Kd in nM; lower means stronger binding.
Replicates are averaged; those with no signal do not enter the mean.
"n.d." means that the variant was in the library but no mating with the target was seen in that replicate; the authors take this as a sign of poor binding, and no number exists.
Empty control strains, which show no peptide, gave a signal in 21% of pairings with library AAYL51; the median was 4.54 and 95% of these signals were weaker than 3.26. No background was subtracted. Also given: how often the same scFv was detected with the empty control strains, with their mean in brackets.
Parent in this assay: reference entry 1.86, copy in this library 0.88.

CDR-H1 | CDR-H2 | CDR-H3 | replicates, log10 nM | log10 Kd (nM), mean | control signals
GFHFRDYAMH | GFSWNSGSIGYADSVK | VGRGGGYFDY | 4.12 5.45 5.02 | 4.87 | 2 of 9 (4.68)
GDTFDDYAMH | QISWNSGSIGYADSVK | VGLGGGYFDY | 4.80 5.60 4.12 | 4.84 | 6 of 9 (4.75)
GFTFDDYAMT | GISWNSGSIGYADSVK | VGHAGGYFDY | n.d. n.d. n.d. | n.d. | 0 of 9
GFTFDDYAKH | GMSWNSGSIGCADSVK | VGRGGGYFDY | n.d. 5.32 4.70 | 5.01 | 4 of 9 (4.49)
GFTFDDYAMH | GIMLNSGSIGYADSVK | VGRGGGYFDY | n.d. n.d. n.d. | n.d. | 0 of 9
GFTFDDYAMH | DISWKSGSIGYADSVK | VGRGGGTFDY | n.d. n.d. 4.71 | 4.71 | 1 of 9 (3.56)
GFTFDDYAMQ | GISWNSGSIGYADSVK | VGRGGGYFDN | n.d. 4.79 n.d. | 4.79 | 2 of 9 (3.87)
LFTFDDYAMH | GESWNSGSIGYADSVK | VGRGGGYADY | n.d. 3.58 n.d. | 3.58 | 1 of 9 (4.46)
GFTFDDEAMH | GISLNSGSIGYADSVK | VIRGGGYFDY | 5.51 4.95 6.65 | 5.70 | 6 of 9 (5.07)
GFTFDNYAMH | GISWNSVSIGYADSVK | VGRAGGYFDY | 1.44 1.44 1.10 | 1.33 | 4 of 9 (4.61)
GFTFDDYAMH | LISWNSGSIGYRDSVK | VPRGGGYFDY | n.d. n.d. n.d. | n.d. | 1 of 9 (3.54)
GFTFDDYKMH | GISPNSGSIGYADTVK | VGRGGGYFDY | n.d. n.d. n.d. | n.d. | 3 of 9 (4.49)
HFTFDDQAMH | GISWNSGSIGYADSVK | VGRGSGYFDY | n.d. n.d. n.d. | n.d. | 2 of 9 (3.33)
GFTFDDYQMH | GISWNSGSHMYADSVK | VGRGGGYFDY | n.d. n.d. n.d. | n.d. | 2 of 9 (3.69)
GFTFDDYAMT | GISWNSASIPYADSVK | VGRGGGYFDY | n.d. 5.96 4.73 | 5.34 | 1 of 9 (4.39)
QFTFDDYAMH | GISWNSGSIGYADSVK | CGRNGGYFDY | n.d. n.d. n.d. | n.d. | 1 of 9 (2.54)
GFTFDAYALH | GIWWNSGSIGYADSVK | VGRGGGYFDY | n.d. n.d. n.d. | n.d. | 0 of 9
GFTLLDYAMH | GISWNSGSIGYADWVK | VGRGGGYFDY | 2.90 4.70 3.91 | 3.83 | 3 of 9 (4.52)
GFTFDDMWMH | GISWGSGSIGYADSVK | VGRGGGYFDY | 4.43 n.d. n.d. | 4.43 | 1 of 9 (3.30)
GFTFDDYAMH | GISWNSGSIGYADSMK | VGRGTGYFDY | n.d. n.d. n.d. | n.d. | 0 of 9
GFTFNDYAMN | GISWNSGSIGYADSVK | VGRGGGYFDY | n.d. n.d. n.d. | n.d. | 3 of 9 (4.71)
GFTFDDYAMH | GISWNSGSTGYADSVK | VGRGGGYFDY | 0.73 1.04 0.16 | 0.64 | 3 of 9 (4.24)
GFTFDDYAMH | GISWNSGFIGYADSVK | VGRGGGGFDS | 4.08 n.d. n.d. | 4.08 | 6 of 9 (4.74)
GFTFDDYAMH | GISWNSGSIGYADSVK | PGRGGGIFPY | 0.68 0.64 -0.05 | 0.42 | 0 of 9
GFTFDDYANH | GISGNSGSIGYADAVK | VGRGGGYFDY | 3.91 6.08 n.d. | 4.99 | 0 of 9
GFTFDDYAMH | GISWNSGSIGYATHVK | VGRGGGYFGY | 2.97 2.57 2.49 | 2.68 | 4 of 9 (5.08)
GFIFDTYAMH | GISWNSGSIGYADFVK | VGRGGGYFDY | 2.47 2.74 2.15 | 2.45 | 2 of 9 (4.54)
GATFDDYAMR | GISWNIGSIGYADSVK | VGRGGGYFDY | 4.97 n.d. 5.16 | 5.06 | 4 of 9 (5.77)
GFTFDDYAMH | EISWRSGSIGYADSYK | VGRGGGYFDY | n.d. n.d. n.d. | n.d. | 0 of 9
GFTFDDYAMH | GISWNSGGIGYADSVD | VGRGGGYFQY | 2.76 2.69 2.44 | 2.63 | 2 of 9 (4.12)
GFTFDDYAMH | GISWNSGSIPYADSVK | VGRGGEYFDR | n.d. n.d. n.d. | n.d. | 0 of 9
GFTIDDYAMW | GISWNSGSIGYADSVK | VLRGGGYFDY | 4.60 n.d. n.d. | 4.60 | 4 of 9 (4.77)
GFTFDDEAMH | GISWNSSSIGYADSVK | PGRGGGYFDY | 5.09 5.10 4.56 | 4.92 | 6 of 9 (4.49)
GFTFDDYAMH | TISWNSGSIGYPDSVK | VGRGGGYFDY | 4.12 4.22 n.d. | 4.17 | 0 of 9
GFSFDDYAMH | GISWNSGSIGYADSVK | PGRGGGYFDY | n.d. n.d. n.d. | n.d. | 0 of 9
GKTDDDYWMH | GISWNSGSIGYADSVK | VGRGGGYFDY | 5.26 n.d. n.d. | 5.26 | 4 of 9 (4.28)
GWTFFDYAMH | GISWNSGSIGYADSVK | VGRGGGYFDL | n.d. 5.62 n.d. | 5.62 | 2 of 9 (4.86)
GFTFDDYFMH | GISWNVGSIGYADSVK | VNRGGGYFDY | 5.22 3.89 5.17 | 4.76 | 3 of 9 (4.31)
GFTFDDYAMH | GISWFSGSIGVADSVY | VGRGGGYFDY | n.d. n.d. n.d. | n.d. | 0 of 9
GFTFDDYAMN | GESWNSGSIGYADSVK | GGRGGGYFDY | n.d. n.d. n.d. | n.d. | 0 of 9
GFTFDDYAKH | GISWNSGSPGYPDSVK | VGRGGGYFDY | n.d. 5.52 n.d. | 5.52 | 2 of 9 (3.48)
GFTFDDYAMH | GISWNSGMIGYADDCK | VGRGGGYFDY | n.d. n.d. n.d. | n.d. | 0 of 9
GFTFDDYHMH | GISWNSGSIGYADSVK | IGRGGGYFDY | 3.84 n.d. n.d. | 3.84 | 0 of 9

The first 4 entries again:

CDR-H1	CDR-H2	CDR-H3	replicates, log10 nM	log10 Kd (nM), mean	control signals
GFHFRDYAMH	GFSWNSGSIGYADSVK	VGRGGGYFDY	4.12 5.45 5.02	4.87	2 of 9 (4.68)
GDTFDDYAMH	QISWNSGSIGYADSVK	VGLGGGYFDY	4.80 5.60 4.12	4.84	6 of 9 (4.75)
GFTFDDYAMT	GISWNSGSIGYADSVK	VGHAGGYFDY	n.d. n.d. n.d.	n.d.	0 of 9
GFTFDDYAKH	GMSWNSGSIGCADSVK	VGRGGGYFDY	n.d. 5.32 4.70	5.01	4 of 9 (4.49)